Data published in patent US12605371B2, “Combination therapy for cancer” (The Board of Trustees of the Leland Stanford Junior …, priority 2020, dated 2026).

Target: thrombin (Mus musculus, UniProt P19221)

**Q.** How did the “correlation (R) of aPTT prolongation and tumor weight” value (WT mice treated with DE) turn out when `CCCCCCOC(=O)N=C(N)c1ccc(NCc2nc3cc(C(=O)N(CCC(=O)OCC)c4ccccn4)ccc3n2C)cc1` [DE, dabigatran etexilate] was run?
**A.** −0.37

**Q.** What about the “thrombin activity by aPTT (in words)” value (blood collected at sacrifice, DE chow) of the same compound?
**A.** blocked thrombin activity
